The text below walks through data of paper PMC11726634, “Probing the Histamine H1 Receptor Binding Site to Explore Ligand Binding Kinetics” (Journal of Medicinal Chemistry, 2024).

Protein sequences, listed by entry. Tags and fused reporters are not part of them. Lines headed by an entry give the natural chain unless they say otherwise; changes in a name come on top.
UniProt P35367, whole entry: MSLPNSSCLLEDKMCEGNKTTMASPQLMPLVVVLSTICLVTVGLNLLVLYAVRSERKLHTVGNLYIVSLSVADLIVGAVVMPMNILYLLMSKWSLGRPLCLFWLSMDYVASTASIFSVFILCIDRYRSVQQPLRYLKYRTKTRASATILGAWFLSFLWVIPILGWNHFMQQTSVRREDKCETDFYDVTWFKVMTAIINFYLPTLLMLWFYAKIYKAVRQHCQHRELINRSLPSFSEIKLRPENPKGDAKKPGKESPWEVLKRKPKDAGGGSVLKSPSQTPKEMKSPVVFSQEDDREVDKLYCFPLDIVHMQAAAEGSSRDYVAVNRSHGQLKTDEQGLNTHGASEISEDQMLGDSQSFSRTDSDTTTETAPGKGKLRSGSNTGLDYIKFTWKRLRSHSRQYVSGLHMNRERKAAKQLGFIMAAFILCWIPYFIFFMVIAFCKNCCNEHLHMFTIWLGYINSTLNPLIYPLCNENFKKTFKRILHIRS

Structures are written as SMILES.

A word on the pKi: it is the Ki on a negative log10 scale, so that one unit is a factor of ten. Read a low pKi as a high Ki.

This experiment concerns the target human H1R (Homo sapiens, UniProt P35367). The experiment is described as follows: [3H]-mepyramine competition binding (radioligand displacement, 4 h) on HEK293T cell homogenates. The note with it: [3H]mepyramine displacement curves after 4 h incubation, HEK293T cell homogenate expressing H1R, 25 °C; mean and SEM, N ≥ 3. Details: expressed in transfected cells; host or cells: HEK293T cells, transient transfection with pcDEF3, used as cell homogenate. The method, then: Protein content of membrane homogenates was determined using a BCA protein assay. […] Membrane preparation, termination of the binding reaction and quantifying radioactivity as described here, were performed for all binding experiments.Total binding and nonspecific binding (i.e., in the presence of mianserin) was analyzed by nonlinear regression using eqs 1 (nonspecific binding) and 2 (total binding).
These values were converted to Ki values using the Cheng–Prusoff equation.[24]
(In general: Loss of bound radioactivity is the signal in a displacement assay; it reports binding, not function.)

Turning to `CN1CCC(Oc2ccccc2Cc2ccccc2)CC1` [compound 1, 4-(2-benzylphenoxy)-1-methylpiperidine], the pKi is on record as 8.6 ± 0.1.
